# Laboratory results as given in publication PMC6858350, “A common mechanism allows selective targeting of GluN2B subunit-containing N-methyl-D-aspartate receptors” (Communications Biology, 2019).
# Sequences of proteins named here, by UniProt entry; tags and fusion partners are left off. Residues count along the entry.
# UniProt Q00960, 27-1482 F176A: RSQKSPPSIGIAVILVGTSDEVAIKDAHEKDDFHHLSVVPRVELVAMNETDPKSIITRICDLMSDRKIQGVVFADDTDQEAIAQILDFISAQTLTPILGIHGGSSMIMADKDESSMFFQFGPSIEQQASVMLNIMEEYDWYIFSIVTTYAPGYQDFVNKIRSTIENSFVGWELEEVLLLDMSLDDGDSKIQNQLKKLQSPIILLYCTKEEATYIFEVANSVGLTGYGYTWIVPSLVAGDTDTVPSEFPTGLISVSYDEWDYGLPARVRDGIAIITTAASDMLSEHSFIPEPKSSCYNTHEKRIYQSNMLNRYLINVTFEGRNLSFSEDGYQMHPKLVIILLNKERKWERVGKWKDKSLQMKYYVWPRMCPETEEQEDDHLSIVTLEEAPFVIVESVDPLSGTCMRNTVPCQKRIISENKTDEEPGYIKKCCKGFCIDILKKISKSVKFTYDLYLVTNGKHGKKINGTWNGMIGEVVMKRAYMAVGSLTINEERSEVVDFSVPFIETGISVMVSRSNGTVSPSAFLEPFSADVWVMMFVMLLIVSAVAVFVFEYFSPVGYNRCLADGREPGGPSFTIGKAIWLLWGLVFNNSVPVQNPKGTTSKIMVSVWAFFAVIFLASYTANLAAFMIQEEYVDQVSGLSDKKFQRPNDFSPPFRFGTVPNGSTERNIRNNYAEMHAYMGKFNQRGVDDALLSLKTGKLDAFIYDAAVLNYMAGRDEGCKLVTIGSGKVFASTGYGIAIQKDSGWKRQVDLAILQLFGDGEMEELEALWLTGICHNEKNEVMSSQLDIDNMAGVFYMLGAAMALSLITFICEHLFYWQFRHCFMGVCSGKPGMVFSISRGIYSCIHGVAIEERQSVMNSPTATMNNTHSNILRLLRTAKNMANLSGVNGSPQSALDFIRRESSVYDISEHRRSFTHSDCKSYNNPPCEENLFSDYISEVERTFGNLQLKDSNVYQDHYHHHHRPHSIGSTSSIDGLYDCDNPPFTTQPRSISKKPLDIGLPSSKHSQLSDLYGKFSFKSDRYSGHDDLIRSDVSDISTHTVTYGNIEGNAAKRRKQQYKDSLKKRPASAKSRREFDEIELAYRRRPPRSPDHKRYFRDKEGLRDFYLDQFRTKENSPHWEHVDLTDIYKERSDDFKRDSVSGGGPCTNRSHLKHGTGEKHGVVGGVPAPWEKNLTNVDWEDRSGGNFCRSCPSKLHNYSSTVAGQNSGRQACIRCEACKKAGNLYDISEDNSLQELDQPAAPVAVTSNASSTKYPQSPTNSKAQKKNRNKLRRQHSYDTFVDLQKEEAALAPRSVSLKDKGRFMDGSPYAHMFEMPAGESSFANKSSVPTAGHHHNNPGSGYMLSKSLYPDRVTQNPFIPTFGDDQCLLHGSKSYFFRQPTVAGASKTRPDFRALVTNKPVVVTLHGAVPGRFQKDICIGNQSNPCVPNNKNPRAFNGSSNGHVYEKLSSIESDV
# UniProt Q00960, 27-1482: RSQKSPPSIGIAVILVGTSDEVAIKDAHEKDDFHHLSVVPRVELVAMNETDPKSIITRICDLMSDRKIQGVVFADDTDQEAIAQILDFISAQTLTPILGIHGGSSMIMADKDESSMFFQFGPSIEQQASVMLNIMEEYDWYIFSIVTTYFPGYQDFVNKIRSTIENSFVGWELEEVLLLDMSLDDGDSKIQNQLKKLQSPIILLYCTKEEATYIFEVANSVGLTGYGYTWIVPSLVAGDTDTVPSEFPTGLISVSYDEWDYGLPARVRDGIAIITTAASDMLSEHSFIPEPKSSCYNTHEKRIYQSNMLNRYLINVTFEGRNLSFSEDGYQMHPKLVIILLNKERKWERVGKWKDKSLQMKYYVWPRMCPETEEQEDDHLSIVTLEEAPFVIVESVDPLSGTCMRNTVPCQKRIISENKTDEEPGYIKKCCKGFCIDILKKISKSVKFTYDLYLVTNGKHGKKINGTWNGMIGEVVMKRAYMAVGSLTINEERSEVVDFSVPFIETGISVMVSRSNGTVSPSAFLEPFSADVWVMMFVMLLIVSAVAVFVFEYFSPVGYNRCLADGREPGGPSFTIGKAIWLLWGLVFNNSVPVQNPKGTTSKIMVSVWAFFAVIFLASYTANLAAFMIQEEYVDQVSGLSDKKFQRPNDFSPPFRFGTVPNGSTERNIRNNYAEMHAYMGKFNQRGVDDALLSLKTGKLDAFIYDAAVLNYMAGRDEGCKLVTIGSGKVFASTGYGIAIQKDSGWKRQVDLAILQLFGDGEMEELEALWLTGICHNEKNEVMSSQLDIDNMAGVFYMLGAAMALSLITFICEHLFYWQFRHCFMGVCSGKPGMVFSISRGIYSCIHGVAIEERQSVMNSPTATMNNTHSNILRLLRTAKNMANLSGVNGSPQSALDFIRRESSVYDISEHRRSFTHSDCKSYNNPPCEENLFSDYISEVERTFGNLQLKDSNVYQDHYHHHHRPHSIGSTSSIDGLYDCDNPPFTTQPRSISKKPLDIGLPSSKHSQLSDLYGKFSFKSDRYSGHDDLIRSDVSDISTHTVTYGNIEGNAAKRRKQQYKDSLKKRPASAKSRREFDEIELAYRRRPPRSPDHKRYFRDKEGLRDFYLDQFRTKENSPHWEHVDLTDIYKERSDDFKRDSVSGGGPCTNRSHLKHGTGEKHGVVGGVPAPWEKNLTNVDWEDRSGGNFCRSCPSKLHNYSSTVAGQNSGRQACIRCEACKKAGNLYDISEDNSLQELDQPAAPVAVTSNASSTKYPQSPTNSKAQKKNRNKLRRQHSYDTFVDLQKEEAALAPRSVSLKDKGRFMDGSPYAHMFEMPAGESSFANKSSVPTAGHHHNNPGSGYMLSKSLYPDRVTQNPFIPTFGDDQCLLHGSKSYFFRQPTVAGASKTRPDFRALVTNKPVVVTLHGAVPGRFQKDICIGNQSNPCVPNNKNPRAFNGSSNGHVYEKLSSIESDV
# UniProt Q00960, 27-1482 I111A: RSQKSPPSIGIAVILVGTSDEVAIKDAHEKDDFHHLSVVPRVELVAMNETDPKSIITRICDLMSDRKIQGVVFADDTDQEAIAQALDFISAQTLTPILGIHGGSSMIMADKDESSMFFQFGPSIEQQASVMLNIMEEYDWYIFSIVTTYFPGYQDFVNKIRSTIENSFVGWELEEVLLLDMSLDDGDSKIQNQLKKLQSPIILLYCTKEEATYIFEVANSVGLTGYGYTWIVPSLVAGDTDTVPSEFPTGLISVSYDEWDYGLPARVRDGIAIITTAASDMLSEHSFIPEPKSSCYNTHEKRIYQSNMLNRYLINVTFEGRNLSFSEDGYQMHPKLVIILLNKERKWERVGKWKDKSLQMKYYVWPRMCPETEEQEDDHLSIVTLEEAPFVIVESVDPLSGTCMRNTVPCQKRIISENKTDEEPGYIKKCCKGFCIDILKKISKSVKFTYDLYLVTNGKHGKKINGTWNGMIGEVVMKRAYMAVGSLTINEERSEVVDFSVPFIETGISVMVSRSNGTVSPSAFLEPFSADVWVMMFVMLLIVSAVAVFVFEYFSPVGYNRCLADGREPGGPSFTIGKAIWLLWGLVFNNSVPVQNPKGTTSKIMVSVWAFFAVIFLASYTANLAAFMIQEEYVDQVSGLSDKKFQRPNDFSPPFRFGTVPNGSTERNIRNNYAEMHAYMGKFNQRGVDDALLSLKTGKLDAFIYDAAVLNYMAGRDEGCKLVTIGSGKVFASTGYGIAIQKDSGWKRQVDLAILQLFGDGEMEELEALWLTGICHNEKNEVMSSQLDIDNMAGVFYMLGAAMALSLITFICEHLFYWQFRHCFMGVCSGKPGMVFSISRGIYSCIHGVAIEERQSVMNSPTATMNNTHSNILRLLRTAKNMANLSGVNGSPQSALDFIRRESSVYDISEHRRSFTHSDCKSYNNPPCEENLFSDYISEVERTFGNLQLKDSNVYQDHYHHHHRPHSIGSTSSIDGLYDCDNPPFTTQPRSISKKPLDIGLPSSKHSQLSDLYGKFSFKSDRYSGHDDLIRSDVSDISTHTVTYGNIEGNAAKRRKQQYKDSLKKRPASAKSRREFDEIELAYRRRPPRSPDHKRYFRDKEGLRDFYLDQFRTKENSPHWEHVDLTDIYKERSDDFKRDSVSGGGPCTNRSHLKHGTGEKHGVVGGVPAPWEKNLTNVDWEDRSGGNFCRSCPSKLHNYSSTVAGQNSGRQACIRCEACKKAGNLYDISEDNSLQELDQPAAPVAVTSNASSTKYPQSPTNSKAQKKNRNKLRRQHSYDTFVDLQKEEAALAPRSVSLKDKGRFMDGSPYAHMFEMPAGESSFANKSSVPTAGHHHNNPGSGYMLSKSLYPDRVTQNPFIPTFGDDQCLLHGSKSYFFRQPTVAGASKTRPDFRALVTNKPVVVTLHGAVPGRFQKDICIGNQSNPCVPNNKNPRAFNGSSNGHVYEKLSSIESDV
# UniProt Q00960, 27-1482 E236A: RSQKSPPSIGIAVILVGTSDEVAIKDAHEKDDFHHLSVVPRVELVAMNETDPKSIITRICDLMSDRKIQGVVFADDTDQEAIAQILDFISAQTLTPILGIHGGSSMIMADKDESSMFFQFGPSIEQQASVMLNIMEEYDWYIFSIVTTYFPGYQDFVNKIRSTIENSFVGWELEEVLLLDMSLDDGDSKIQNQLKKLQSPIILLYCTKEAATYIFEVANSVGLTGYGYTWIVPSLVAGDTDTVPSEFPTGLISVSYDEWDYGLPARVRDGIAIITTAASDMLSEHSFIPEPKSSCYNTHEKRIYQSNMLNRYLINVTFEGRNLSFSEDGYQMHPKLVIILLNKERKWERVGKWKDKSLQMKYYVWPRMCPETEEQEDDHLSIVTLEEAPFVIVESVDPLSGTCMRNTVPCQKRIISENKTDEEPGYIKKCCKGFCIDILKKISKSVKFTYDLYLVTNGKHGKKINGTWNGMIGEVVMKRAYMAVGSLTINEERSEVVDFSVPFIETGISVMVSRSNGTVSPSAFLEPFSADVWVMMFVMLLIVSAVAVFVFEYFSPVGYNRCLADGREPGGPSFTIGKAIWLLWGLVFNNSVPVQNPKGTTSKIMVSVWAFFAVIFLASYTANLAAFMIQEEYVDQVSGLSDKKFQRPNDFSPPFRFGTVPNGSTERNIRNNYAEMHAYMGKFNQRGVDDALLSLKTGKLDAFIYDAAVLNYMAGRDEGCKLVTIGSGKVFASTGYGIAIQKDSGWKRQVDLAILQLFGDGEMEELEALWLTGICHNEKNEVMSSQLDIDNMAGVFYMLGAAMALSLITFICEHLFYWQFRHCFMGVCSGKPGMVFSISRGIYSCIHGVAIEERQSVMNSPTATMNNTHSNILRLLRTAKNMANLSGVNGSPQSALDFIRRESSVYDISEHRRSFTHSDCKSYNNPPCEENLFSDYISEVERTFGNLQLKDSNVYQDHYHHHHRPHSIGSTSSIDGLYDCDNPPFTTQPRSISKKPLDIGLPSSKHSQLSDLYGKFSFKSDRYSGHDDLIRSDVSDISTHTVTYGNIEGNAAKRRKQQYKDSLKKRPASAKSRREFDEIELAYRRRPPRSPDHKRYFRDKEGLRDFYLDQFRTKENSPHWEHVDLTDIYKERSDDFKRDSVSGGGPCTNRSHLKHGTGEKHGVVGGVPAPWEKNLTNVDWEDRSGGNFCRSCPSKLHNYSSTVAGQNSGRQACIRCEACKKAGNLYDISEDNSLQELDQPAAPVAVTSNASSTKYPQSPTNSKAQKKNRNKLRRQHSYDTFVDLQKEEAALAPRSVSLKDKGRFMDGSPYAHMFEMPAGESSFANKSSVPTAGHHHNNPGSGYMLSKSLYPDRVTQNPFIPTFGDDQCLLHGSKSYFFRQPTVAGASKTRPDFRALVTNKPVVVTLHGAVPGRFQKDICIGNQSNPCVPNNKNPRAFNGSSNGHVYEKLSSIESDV
# Legend:
# [1] = target: GluN1-1a WT/GluN2B F176A (Rattus norvegicus, UniProt P35439+Q00960, F176A); details: mutant IC50 / wildtype IC50, GluN2B F176A
# [2] = target: GluN1-1a L135N/GluN2B WT (Rattus norvegicus, UniProt P35439+Q00960, L135N); details: mutant IC50 / wildtype IC50, GluN1-1a L135N
# [3] = target: GluN1-1a WT/GluN2B I111A (Rattus norvegicus, UniProt P35439+Q00960, I111A); details: mutant IC50 / wildtype IC50, GluN2B I111A
# [4] = target: GluN1-1a WT/GluN2B E236A (Rattus norvegicus, UniProt P35439+Q00960, E236A); details: mutant IC50 / wildtype IC50, GluN2B E236A
# [5] = target: GluN1-1a WT/GluN2B Q110A (Rattus norvegicus, UniProt P35439+Q00960, Q110A); details: mutant IC50 / wildtype IC50, GluN2B Q110A
# [6] = target: GluN1-1a WT/GluN2B F176Y (Rattus norvegicus, UniProt P35439+Q00960, F176Y); details: mutant IC50 / wildtype IC50, GluN2B F176Y
# [7] = target: GluN1-1a S132A/GluN2B WT (Rattus norvegicus, UniProt P35439+Q00960, S132A); details: mutant IC50 / wildtype IC50, GluN1-1a S132A
# [8] = target: GluN1-1a Y109S/GluN2B WT (Rattus norvegicus, UniProt P35439+Q00960, Y109S); details: mutant IC50 / wildtype IC50, GluN1-1a Y109S
# [9] = target: GluN1-1a F113S/GluN2B WT (Rattus norvegicus, UniProt P35439+Q00960, F113S); details: mutant IC50 / wildtype IC50, GluN1-1a F113S
SMILES,IC50 shift factor [1],IC50 shift factor [2],IC50 shift factor [3],IC50 shift factor [4],IC50 shift factor [5],IC50 shift factor [6],IC50 shift factor [7],IC50 shift factor [8],IC50 shift factor [9]
Oc1ccc2c(c1)CCN(CCCCc1ccccc1)C[C@@H]2O [compound (R)-1],1977.1,5.5,2.6,3.7,7.4,2.0,2.0,0.4,2.2
Oc1ccc2c(c1)CCN(CCCCc1ccccc1)C[C@H]2O [compound (S)-1],75.4,17.8,–,–,1.2,1.3,3.4,–,–
